Test results from patent publication US7541367B2, “3-benzoimidazolyl-pyrazolopyridines useful in treating kinase disorders” (Janssen Pharmaceutica, N.V., priority 2005, dated 2009).
pIC50: −log10 of the molar value.

Legend:
Format in all cases: cell-based
A375 malignant melanoma = assay: Cell Proliferation Inhibition Assay (14C-thymidine incorporation), A375; settings: Homo sapiens, A-375, A375 cells;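 note: proliferation measured by radiolabelled thymidine uptake into new DNA, counted in scintillating 96-well plates, compound-treated wells compared with DMSO-only control wells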
From the text: (§1) The ability of a test compound to inhibit unregulated cell proliferation may be determined by measuring incorporation of ^14C-labelled thymidine into newly synthesized DNA within cell lines derived from carcinomas originating from several tissues. Accordingly, the effect of a test compound on proliferation of cells with a variety of phenotypes may be determined.
(§2) Carcinoma cell lines used include the HeLa cervical adenocarcinoma from the American Type Culture Collection (ATCC Cat. #CCL2), A375 malignant melanoma (ATCC Cat. #CRL-1619) and HCT-116 colon carcinoma (ATCC Cat. #CCL-247).
(§3) The carcinoma cells are trypsinized and counted. The cells (3600-8000 count) are added to each well of a 96-well CytoStar tissue culture treated scintillating microplate (Amersham #RPNQ0160) in complete medium (100 μL) and the plate is then incubated in complete medium for 24 hrs at 37° C. in an inert atmosphere containing 5% CO2.
(§4) Test compound (1 μL) in 100% DMSO is added to the plate test-wells with DMSO only added to control-wells. The plate is incubated in complete medium for a second 24 hr period at 37° C. in an atmosphere containing 5% CO2. […]
(§5) The plate contents are then discarded, the plate is washed twice with PBS (200 μL) and then PBS (200 μL) is added to each well. The plate is sealed and the degree of methyl ^14C-thymidine incorporation is quantified on a Packard Top Count.

HCT-116 colon carcinoma = assay: Cell Proliferation Inhibition Assay (14C-thymidine incorporation), HCT-116; settings: Homo sapiens, HCT-116, HCT-116 cells;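 note: proliferation measured as methyl 14C-thymidine uptake into new DNA, counted in 96-well scintillating microplates, compared with DMSO-only control wells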
From the text: as §1, §2, §3, §4, §5

[1] = test system: HeLa cervical adenocarcinoma; assay: Cell Proliferation Inhibition Assay (14C-thymidine incorporation), HeLa; settings: Homo sapiens, HeLa cells;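 note: test compound in DMSO added to cells seeded in scintillating 96-well plates, DMSO-only wells as control, uptake of methyl 14C-thymidine into new DNA counted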
From the text: as §1, §2, §3, §4, §5

Row | pIC50 (HCT-116 colon carcinoma) | Compound | also measured
1 |  | OCc1cccc2[nH]c(-c3n[nH]c4ncc(-c5cncc6ccccc56)cc34)nc12 [Cpd 3, [2-(5-isoquinolin-4-yl-1H-pyrazolo[3,4-b]pyridin-3-yl)-1H-benzoimidazol-4-yl]-methanol] | pIC50 (A375 malignant melanoma): 5.83
2 | 8.49 | COCc1cccc2[nH]c(-c3n[nH]c4ncc(-c5cnc6ccccc6c5)cc34)nc12 [Cpd 34, 3-[3-(4-methoxymethyl-1H-benzoimidazol-2-yl)-1H-pyrazolo[3,4-b]pyridin-5-yl]-quinoline] | 
3 |  | CNCc1cncc(-c2cnc3[nH]nc(-c4nc5cc(OC(F)(F)F)ccc5[nH]4)c3c2)c1 [Cpd 96, methyl-{5-[3-(5-trifluoromethoxy-1H-benzoimidazol-2-yl)-1H-pyrazolo[3,4-b]pyridin-5-yl]-pyridin-3-ylmethyl}-amine] | pIC50 [1]: 7.03
4 | 5.10 | COC(=O)c1cccc2[nH]c(-c3n[nH]c4ncc(-c5cncc6ccccc56)cc34)nc12 [Cpd 108, 2-(5-isoquinolin-4-yl-1H-pyrazolo[3,4-b]pyridin-3-yl)-1H-benzoimidazole-4-carboxylic acid methyl ester] | 
